# Reference: PubChem BioAssay AID2751 (The Scripps Research Institute Molecular Screening Center, 2010)
# Protein sequences, listed by entry. Tags and fused reporters are not part of them.
# UniProt Q4J6C6, whole entry: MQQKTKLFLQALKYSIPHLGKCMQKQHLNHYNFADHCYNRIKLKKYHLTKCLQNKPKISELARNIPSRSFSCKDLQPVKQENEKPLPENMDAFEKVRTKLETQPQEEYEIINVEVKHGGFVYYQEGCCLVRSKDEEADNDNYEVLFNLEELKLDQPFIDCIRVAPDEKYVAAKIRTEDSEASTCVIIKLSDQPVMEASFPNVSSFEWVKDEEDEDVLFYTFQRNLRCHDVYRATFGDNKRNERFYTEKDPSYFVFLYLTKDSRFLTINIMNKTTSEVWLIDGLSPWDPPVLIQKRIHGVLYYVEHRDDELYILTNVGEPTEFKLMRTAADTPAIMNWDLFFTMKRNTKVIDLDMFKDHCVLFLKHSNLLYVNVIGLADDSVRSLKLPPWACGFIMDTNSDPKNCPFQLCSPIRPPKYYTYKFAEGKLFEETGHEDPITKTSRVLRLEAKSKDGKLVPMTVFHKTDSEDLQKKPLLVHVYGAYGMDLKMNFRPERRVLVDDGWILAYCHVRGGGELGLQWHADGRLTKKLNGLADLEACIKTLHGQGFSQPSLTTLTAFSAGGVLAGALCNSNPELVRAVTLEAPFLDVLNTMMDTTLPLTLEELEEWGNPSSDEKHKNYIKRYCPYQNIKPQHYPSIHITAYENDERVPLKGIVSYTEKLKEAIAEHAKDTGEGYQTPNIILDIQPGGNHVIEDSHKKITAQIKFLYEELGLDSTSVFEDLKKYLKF
# This is a selection; strong and weak results do not stand in their true shares. Activity calls are given as the source filed them. No stated cut-off is given here; in the data, active means inhibition above about 43%; inactive means the rest.
# Molecular target: Prolyl endopeptidase-like (Homo sapiens) (UniProt Q4J6C6)
# Assay: human PREPL activity-probe blockers – biochemical, fluorescence polarization, primary screen (AID 2751);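 further: 0% = enzyme with DMSO and 100% = wells lacking enzyme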
# Details: recombinant PREPL, fluorescence polarization activity-based probe; at 5.96 µM; hits give high values
row,Structure (SMILES),inhibition
1,COc1cc(I)ccc1[As](=O)(O)O,inactive: 12.4%
